Results taken from publication PMC8594587 (Journal of medicinal chemistry, 2021).

Assay: in vitro
Conditions: human

Compound `Cc1cc(/C=C/C#N)cc(C)c1Oc1nc(NC2CCN(Cc3ccc(S(N)(=O)=O)cc3)CC2)ncc1-c1ccc(N)nc1` [Compound 29a, (E)-4-((4-((5-(6-aminopyridin-3-yl)-4-(4-(2-cyanovinyl)-2,6-dimethylphenoxy)pyrimidin-2-yl)amino)piperidin-1-yl)methyl)benzenesulfonamide] has a CC50 of 2910 ± 650 nM.
